Yeast mating assay B: variants of the scFv Ab-14

Values reported by Li et al. 2023, doi:10.1038/s41467-023-39022-2 (FLAb copy).

All variants were tested on one target, the spike HR2 peptide PDVDLGDISGINAS (SARS-CoV-2).

Each scFv is VH, the linker GGGGSGGGGSGGGGS, VL, as in the parent Ab-14, and differs from it in the CDRs of the heavy chain only.
VH: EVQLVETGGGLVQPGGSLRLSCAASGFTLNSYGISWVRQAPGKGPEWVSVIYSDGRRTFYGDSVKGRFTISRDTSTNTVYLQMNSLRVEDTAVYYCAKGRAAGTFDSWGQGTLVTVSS
VL: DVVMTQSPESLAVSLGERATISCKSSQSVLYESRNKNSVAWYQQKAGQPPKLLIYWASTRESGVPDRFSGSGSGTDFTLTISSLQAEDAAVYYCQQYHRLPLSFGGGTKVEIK

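The starting antibody came from a phage panning campaign against this peptide. Designed CDR sequences, proposed from the first random library and measured here. Group labels follow the data file (Rand: our label for a block that the file lists under HC and that is probably the random mutants of the ten best first-round binders; En: ensemble of fine-tuned language models; HC: hill climbing; Gen: genetic algorithm; Gibbs: Gibbs sampling; a sequence that several methods proposed may carry one label only). AlphaSeq pools MATa yeast showing the antibodies with MATalpha yeast showing the peptide. Pairs that bind mate more often; barcode pairs of the diploids are counted by sequencing. Read counts were normalised to the haploid input and turned into Kd by a linear fit to BCL2-family pairs of known affinity, for each replicate. There are six technical replicates.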

Each variant is given by its three heavy chain CDRs, as the data file delimits them; those of the parent are GFTLNSYGIS, VIYSDGRRTFYGDSVK, GRAAGTFDS.
This list holds designs with more than six substitutions.
Values are apparent Kd, the geometric mean of the replicates that gave a signal; lower means stronger binding.
An entry "nd" has no value in the source: the pair was not observed among the diploids in any replicate. This suggests poor binding but is not conclusive.
A sequence measured in both rounds can read differently, since the two assays cover different ranges.

Variant GFDINEYGVS | VIYADGMRSYYQDKVK | GSLGALFDV [En_Gibbs] gave nd (0 of 6 replicates; controls 0 of 18). Variant GFSINEYGIS | VIYADGNRSAYIDAVK | GNSGSSFLE [En_Gibbs] gave nd (0 of 6 replicates; controls 0 of 18). Variant GFDLNEYGIS | VIYADGKRTAYSDSVK | GNAGGTFDV [En_HC] gave 1.4 nM (6 of 6 replicates; controls 0 of 18). With GGELDEYGIS | VIYADGIRRQYADNVK | GETADAFDM [En_Gibbs] the result was 67 nM (1 of 6 replicates; controls 0 of 18). For GSDLNEYGIS | VIYADGKRSYYADAVK | GGYNIGMSV [En_Gibbs], the assay gave nd (0 of 6 replicates; controls 0 of 18). For GFDLNEYGIS | VIYADGRRTAYADDVK | GNVAGTFDI [En_Gen], the assay gave 390 pM (6 of 6 replicates; controls 0 of 18). For GFDLNEYGIS | VIYADGSRTAYIDSVK | GNVAGTFDT [En_Gen], the assay gave 61 pM (3 of 6 replicates; controls 0 of 18).

For GFDLNEYGIS | VIYADGRRTFYKDSVK | GNLAGTFDQ [En_HC], the assay gave 480 pM (6 of 6 replicates; controls 1 of 18). Variant GFDLEEFGIS | VIYADGMRTYYSDAVK | GTFSGLVSV [En_Gibbs] showed nd (0 of 6 replicates; controls 1 of 18). For GFDLNEYGIS | VIYADGQRTAYADSVK | GQVAGTFDL [En_Gen], the assay gave 460 pM (6 of 6 replicates; controls 0 of 18). For GFDLNEYGIS | VIYADGIRTAYADDVK | GNVAGTFDL [En_Gen], the assay gave 470 pM (6 of 6 replicates; controls 0 of 18). For GDDIDEYGIS | VIYADGHRSQYSEQVK | GNNAGTLDE [En_Gibbs], the assay gave nd (0 of 6 replicates; controls 0 of 18). For GFDLNEYGIS | VIYADGRRTQYIDSVK | GNVAGTFDM [En_HC], the assay gave 560 pM (6 of 6 replicates; controls 0 of 18). Variant GFDLNEYGIS | VIYADGMRTVYADSVK | GNNAGTFDQ [En_Gen] gave 600 pM (6 of 6 replicates; controls 0 of 18).

For GFDLDEYGIS | VIYADGMRTAYSDDVK | GNVAGTFDQ [En_Gen], the assay gave 1.8 nM (6 of 6 replicates; controls 1 of 18). Variant GFTLNDYGIS | VFYSDGRRTQYGDSVK | GRAALTNIQ [Rand] showed nd (0 of 6 replicates; controls 0 of 18). With GFNLNDYTIS | VIYSDGNRTQYIWSVK | GRAAGTFDS [Rand] the result was 89 nM (2 of 6 replicates; controls 2 of 18). Variant GFDLNEYGIS | VIYADGKRTFYADSVK | GKNAGTFDQ [En_HC] gave 280 pM (6 of 6 replicates; controls 0 of 18). For GFDLDEYGIS | VIYADGMRTAYADDVK | GNVAGTFDL [En_Gen], the assay gave 140 pM (6 of 6 replicates; controls 0 of 18). For GFQIEEYGIS | VIYADGSRTEYTDSVK | GKYIFNLDV [En_Gibbs], the assay gave nd (0 of 6 replicates; controls 2 of 18). For GFDLNEYGIS | VIYADGVRTAYADDVK | GEQAGTFDV [En_Gen], the assay gave 1.5 nM (6 of 6 replicates; controls 0 of 18).

Variant GFGLDEYGIS | VIYADGNRQMYTDSVK | GNNLMLVSV [En_Gibbs] showed nd (0 of 6 replicates; controls 0 of 18). Variant GFDLNEYGIS | VIYADGKRTFYADSVK | GEVAGTFDM [En_Gen] gave 380 pM (6 of 6 replicates; controls 0 of 18). Variant GFDLEEYGIS | VIYADGRRTAYADSVK | GEAAGTFDL [En_HC] showed 250 pM (5 of 6 replicates; controls 0 of 18). Variant GFDLEDYGIS | VIYADGRRTQYADSVK | GEAAGTFDV [En_HC] gave 2.0 nM (6 of 6 replicates; controls 0 of 18). Variant GFNLQEYGIS | VIYADGSRVVYQEKVK | GFDAGTFDT [En_Gibbs] gave 3.4 nM (6 of 6 replicates; controls 1 of 18). Variant GFNLDEYGIS | VIYADGMRTAYADSVK | GEVAGTFDT [En_Gen] gave 2.2 nM (5 of 6 replicates; controls 0 of 18). Variant GFDLGEYGIS | VIYADGRRKGYSDSVK | GINSINVTD [En_Gibbs] showed nd (0 of 6 replicates; controls 0 of 18).

Variant GFDLNEYGIS | VIYADGMRTAYSDSVK | GEIAGTFDV [En_Gen] showed 450 pM (6 of 6 replicates; controls 0 of 18). Variant GFDLDEYGIS | VIYADGKRTFYADSVK | GNQAGTFDV [En_Gen] gave 340 pM (6 of 6 replicates; controls 0 of 18). Variant GFDLNEYGIS | VIYADGMRTSYADSVK | GNNAGTFDQ [En_HC] gave 750 pM (6 of 6 replicates; controls 0 of 18). With GFDLNEYGIS | VIYADGMRKAYADSVK | GNEAGTFDV [En_Gen] the result was 380 pM (6 of 6 replicates; controls 0 of 18). Variant GFDLNEYGIS | VIYADGMRTAYIDSVK | GNEAGTFDV [En_Gen] gave 490 pM (6 of 6 replicates; controls 0 of 18). Variant GFQIEEYGIS | VIYADGDRMSYDNKVK | GQISGQFDM [En_Gibbs] gave nd (0 of 6 replicates; controls 0 of 18). Variant GFDLGEYGVS | VIYADGTRAQYADKVK | GNISYGFTV [En_Gibbs] showed nd (0 of 6 replicates; controls 0 of 18).

With GFDLTEYGIS | VIYADGRRTQYSQSVK | GLNGGIIVV [En_Gibbs] the result was nd (0 of 6 replicates; controls 0 of 18). Variant GFNLDEYGIS | VIYADGHRTQYHQSVK | GMNNGYIAG [En_Gibbs] showed nd (0 of 6 replicates; controls 0 of 18). Variant GFDLNEYGIS | VIYADGVRTFYADSVK | GQLAGTFDS [En_HC] gave 210 pM (6 of 6 replicates; controls 1 of 18). Variant GFDLNEYGIS | VIYADGMRTVYADSVK | GNVAGTFDI [En_Gen] gave 270 pM (6 of 6 replicates; controls 1 of 18). Variant GFDLNEYGIS | VIYADGRRTFYADSVK | GEAAGTFIM [En_HC] gave 66 nM (6 of 6 replicates; controls 0 of 18). Variant GFDLNEYGIS | VIYADGRRTAYSDSVK | GEQAGTFDF [En_HC] gave 300 pM (6 of 6 replicates; controls 0 of 18).

4 of these entries, quoted again:

With GFNLNDYTIS | VIYSDGNRTQYIWSVK | GRAAGTFDS [Rand] the result was 89 nM (2 of 6 replicates; controls 2 of 18).
With GFDLDEYGIS | VIYADGKRTFYADSVK | GNQAGTFDV [En_Gen] the result was 340 pM (6 of 6 replicates; controls 0 of 18).
With GFNLQEYGIS | VIYADGSRVVYQEKVK | GFDAGTFDT [En_Gibbs] the result was 3.4 nM (6 of 6 replicates; controls 1 of 18).
With GSDLNEYGIS | VIYADGKRSYYADAVK | GGYNIGMSV [En_Gibbs] the result was nd (0 of 6 replicates; controls 0 of 18).

Background: pairings of all heavy chain designs with three empty control strains gave a value in 1% of cases (median 120 nM, 5th percentile 7.0 nM). Values in that range, when seen in few replicates, are hard to tell from nonspecific mating. For each scFv, signals with the empty controls are counted beside the result.
The parent sequence was in this pool as ten entries: three were never detected, three once, and four in most replicates, with averages from 2.2 nM to 240 nM.
The authors' rule: three or more of the six replicates give a measured affinity, fewer mean a poor binder.